In ChEMBL document CHEMBL5512649, “Drug development and potential targets for Cushing's syndrome” (Eur J Med Chem, 2024):

Biological target: T1, dCTP pyrophosphatase 1 (Homo sapiens, UniProt Q9H773)
T1 sequence (Q9H773 whole entry): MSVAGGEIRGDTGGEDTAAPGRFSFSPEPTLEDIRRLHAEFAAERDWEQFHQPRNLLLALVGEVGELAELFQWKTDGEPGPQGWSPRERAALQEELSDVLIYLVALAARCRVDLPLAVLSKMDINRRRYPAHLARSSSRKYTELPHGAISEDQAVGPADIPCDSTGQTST
Experiment: Inhibition of DCTPP1 (unknown origin)

Structure (SMILES): CC(C)[C@]12O[C@H]1[C@@H]1O[C@]13[C@]1(O[C@H]1C[C@H]1C4=C(CC[C@@]13C)C(=O)OC4)[C@@H]2O [TRIPTOLIDE]
- IC50: 10 nM
